Experiments:
human FGFR4 = human FGFR4 (Homo sapiens, UniProt P22455); assay: 33P isotope-labeled kinase activity assay (Reaction Biology Corp), FGFR4; assay type: biochemical
human FGFR1 = human FGFR1 (Homo sapiens, UniProt P11362); assay: 33P isotope-labeled kinase activity assay (Reaction Biology Corp), FGFR1; assay type: biochemical; details: read-out: IC50 (nM) FGFR1; 33P-ATP kinase assay, ATP 5 μM, kinase 1.75 nM, substrate pEY + Mn, 120 minutes at room temperature

Sequences of proteins named here, by UniProt entry; tags and fusion partners are left off. Residues count along the entry.
UniProt P22455, 22-802 limits assumed: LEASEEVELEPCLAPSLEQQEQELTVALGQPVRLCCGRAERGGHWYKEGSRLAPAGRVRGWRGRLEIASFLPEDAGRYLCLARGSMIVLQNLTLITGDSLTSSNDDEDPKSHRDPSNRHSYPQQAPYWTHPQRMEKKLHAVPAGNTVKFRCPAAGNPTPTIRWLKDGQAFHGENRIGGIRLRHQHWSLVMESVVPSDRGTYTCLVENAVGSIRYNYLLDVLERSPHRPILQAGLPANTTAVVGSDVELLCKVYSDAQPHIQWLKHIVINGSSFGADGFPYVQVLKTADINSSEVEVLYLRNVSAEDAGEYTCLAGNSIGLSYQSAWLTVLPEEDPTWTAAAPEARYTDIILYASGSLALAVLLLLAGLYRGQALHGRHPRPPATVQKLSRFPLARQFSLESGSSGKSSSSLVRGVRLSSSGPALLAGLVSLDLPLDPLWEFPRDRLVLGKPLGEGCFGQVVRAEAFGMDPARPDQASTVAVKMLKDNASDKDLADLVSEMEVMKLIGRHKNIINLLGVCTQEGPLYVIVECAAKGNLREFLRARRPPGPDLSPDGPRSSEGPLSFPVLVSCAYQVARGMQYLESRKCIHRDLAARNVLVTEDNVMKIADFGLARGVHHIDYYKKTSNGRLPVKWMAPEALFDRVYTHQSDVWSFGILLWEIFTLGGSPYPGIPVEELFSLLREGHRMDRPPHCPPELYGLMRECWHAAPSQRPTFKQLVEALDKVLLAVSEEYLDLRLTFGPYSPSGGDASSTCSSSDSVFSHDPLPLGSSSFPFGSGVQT
UniProt P11362, 22-822 limits assumed: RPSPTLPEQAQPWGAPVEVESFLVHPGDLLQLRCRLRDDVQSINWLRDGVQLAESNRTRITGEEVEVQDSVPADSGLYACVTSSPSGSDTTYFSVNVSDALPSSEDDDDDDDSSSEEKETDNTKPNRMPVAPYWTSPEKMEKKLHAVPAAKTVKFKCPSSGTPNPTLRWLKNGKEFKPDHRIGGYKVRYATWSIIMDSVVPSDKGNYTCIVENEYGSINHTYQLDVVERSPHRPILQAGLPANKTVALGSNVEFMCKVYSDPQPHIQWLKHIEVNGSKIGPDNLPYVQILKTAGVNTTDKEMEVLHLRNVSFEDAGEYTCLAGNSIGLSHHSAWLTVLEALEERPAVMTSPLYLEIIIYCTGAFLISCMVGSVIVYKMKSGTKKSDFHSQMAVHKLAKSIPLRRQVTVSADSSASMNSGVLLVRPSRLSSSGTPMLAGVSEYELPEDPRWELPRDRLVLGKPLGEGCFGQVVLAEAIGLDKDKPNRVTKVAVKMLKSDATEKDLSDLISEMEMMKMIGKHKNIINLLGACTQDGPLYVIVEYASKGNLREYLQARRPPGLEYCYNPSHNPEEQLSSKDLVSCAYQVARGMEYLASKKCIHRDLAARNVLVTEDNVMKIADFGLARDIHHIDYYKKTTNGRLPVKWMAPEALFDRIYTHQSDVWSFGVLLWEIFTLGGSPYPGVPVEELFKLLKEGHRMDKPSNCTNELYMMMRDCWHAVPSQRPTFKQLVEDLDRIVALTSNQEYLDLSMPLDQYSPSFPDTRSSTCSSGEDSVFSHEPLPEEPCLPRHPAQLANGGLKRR

- Inhibition activity difference (IC50 ratio) FGFR4/FGFR1 (human FGFR4; ratio of FGFR4 IC50 to FGFR1 IC50): 7
- IC50 (human FGFR4; read-out: IC50 (nM) FGFR4, 33P-ATP kinase assay, ATP 100 μM, kinase 2.5 nM, substrate pEY + Mn, 120 minutes at room temperature): 0.27 nM
- IC50 (human FGFR1): 0.04 nM
Compound: C=CC(=O)N1CCC(c2cc(C#Cc3cc(OC)cc(OC)c3)c3c(N)ncnn23)C1 (single isomer, unassigned) [Embodiment 1]

From US11130761B2, “Substituted pyrrolo[2,1-f][1,2,4]triazines as FGFR inhibitors” (CSPC ZHONGQI PHARMACEUTICAL TECHNOLOGY (SHIJIAZHUANG) CO., …, priority 2016, dated 2021)
